From PubChem BioAssay AID376 (PDSP, 2006) come the findings set out here.

The chains behind the UniProt entries cited, without tags or fusion partners.
UniProt Q12809, whole entry: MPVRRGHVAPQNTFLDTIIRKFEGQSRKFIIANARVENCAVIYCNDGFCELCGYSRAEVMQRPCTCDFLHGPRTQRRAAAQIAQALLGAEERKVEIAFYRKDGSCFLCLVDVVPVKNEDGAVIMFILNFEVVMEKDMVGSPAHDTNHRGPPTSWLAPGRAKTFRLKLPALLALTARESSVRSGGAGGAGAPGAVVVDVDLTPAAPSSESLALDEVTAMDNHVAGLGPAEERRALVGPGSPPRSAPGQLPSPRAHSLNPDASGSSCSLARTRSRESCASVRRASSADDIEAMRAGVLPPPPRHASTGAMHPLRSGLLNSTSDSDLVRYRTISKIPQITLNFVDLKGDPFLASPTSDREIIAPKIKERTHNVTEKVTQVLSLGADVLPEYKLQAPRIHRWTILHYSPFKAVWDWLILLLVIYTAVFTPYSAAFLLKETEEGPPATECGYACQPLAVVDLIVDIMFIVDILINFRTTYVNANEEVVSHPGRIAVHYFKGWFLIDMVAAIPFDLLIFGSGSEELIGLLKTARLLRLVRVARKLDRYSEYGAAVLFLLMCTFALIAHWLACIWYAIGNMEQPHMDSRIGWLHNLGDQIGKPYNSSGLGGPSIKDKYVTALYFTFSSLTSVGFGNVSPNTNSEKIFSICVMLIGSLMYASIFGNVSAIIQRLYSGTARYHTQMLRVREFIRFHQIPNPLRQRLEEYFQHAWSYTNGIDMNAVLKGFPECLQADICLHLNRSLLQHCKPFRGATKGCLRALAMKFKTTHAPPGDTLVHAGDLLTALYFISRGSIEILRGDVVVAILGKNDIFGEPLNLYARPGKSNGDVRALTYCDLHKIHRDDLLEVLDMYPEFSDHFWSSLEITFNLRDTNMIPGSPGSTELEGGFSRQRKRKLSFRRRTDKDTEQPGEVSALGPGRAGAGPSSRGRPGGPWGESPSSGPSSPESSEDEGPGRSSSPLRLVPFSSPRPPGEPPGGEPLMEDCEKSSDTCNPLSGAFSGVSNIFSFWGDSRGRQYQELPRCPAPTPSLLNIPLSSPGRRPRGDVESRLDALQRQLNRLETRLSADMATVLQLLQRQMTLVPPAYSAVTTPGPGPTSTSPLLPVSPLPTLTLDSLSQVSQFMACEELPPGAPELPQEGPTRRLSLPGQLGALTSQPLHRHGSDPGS

This is a selection; strong and weak results do not stand in their true shares. The source made the active and inactive calls. No stated cut-off is given here; in the data, active means hERG blockade below about -20% or above about 20%; inactive means in between.

The target in this assay is Voltage-gated inwardly rectifying potassium channel KCNH2 (Homo sapiens) (UniProt Q12809). The experiment in a line: KCNH2 potassium channel function modulators, cell-based (AID 376).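 Further: 0% = buffer alone and 100% = reference blocker.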 The conditions noted are these: hERG-expressing cells, channel activity single-concentration screen; concentration not given here.
In the case of `O=C(O)C1(Nc2ccccc2)CCN(Cc2ccccc2)CC1`, the hERG blockade was active: -21%. The figure for `NC1CCCCC1.NP(=O)(O)N(CCCl)CCCl` is inactive: -18.3%.
